# System: MOLM-13 cells (FLT3-ITD)
# Assay: CellTiter-Glo cell viability (combination)
# Format: cell-based, human
# Conditions: MOLM-13, 72 hours, average CI
# Protocol: Three cell lines which harbor FLT3-ITD were used for the drug combination studies (MV-4-11, MOLM-13, and MOLM-14).
# Cells were treated with the drugs (single agent or combination) for 72 hours. Drug combination activity was determined by first measuring cell viability with CellTiter-Glo®, followed by the calculation of the EC50 corresponding to single agent activity, using the R DRC package (R Core Team, 2017). The combination index (CI) values were computed using the Chou-Talalay method (Chou T, Cancer Research., 2010 70(2): 440-6.), based on the viability of each drug alone and in combination, across all concentrations tested. In brief, CI was defined as: […]
compound,measurement,value
"COc1cccc2c1C(=O)c1c(O)c3c(c(O)c1C2=O)C[C@@](O)(C(C)=O)C[C@@H]3O[C@H]1C[C@H](N)[C@H](O)[C@H](C)O1 [Daunorubicin, daunorubicin]",combination index (CI) of AML drug in combination with MPC-0767,CI = 0.9

# Source: US20200253979A1, “THERAPEUTIC METHODS RELATING TO HSP90 INHIBITORS” (AI Therapeutics, Inc., priority 2017, published 2020)
